In patent US10690657B2, “Epithelial tissue model” (Nederlandse Organisatie voor …, priority 2012, dated 2020):
Where two headings read alike, the source gives them in different places.

Test system: porcine intestinal jejunal tissue
Conditions: FD4 50 μM apical, two hour incubation

fluorescein isothiocyanate-dextran [FD4]
Leakage of FD4 to the basolateral compartment (non-viable, damaged or wrongly capped segments): up to 7 % of the dose
Leakage of FD4 to the basolateral compartment (viable tissue): below 0.3 % of the dose
